From the NIST ThermoML archive (doi:10.1021/je900665a)

Settings: Capillary rise

CCCCOCCCC [dibutyl ether]
Settings	surface tension liquid-gas [mN/m]
263.17 K	25.79
268.18 K	25.35
273.18 K	24.84
278.19 K	24.39
283.2 K	23.89
288.19 K	23.58
293.18 K	23.05
298.11 K	22.59
303.17 K	22.22
308.05 K	21.73
313.18 K	21.25
318.13 K	20.68
323.2 K	20.26
328.2 K	19.76
333.18 K	19.41
338.18 K	18.82
343.17 K	18.33
348.18 K	17.87
353.17 K	17.47
358.18 K	16.96
363.19 K	16.54
368.19 K	16.09
373.17 K	15.5
